Assay results from patent US20040143095A1 (RESEARCH DEVELOPMENT FOUNDATION, published 2004).

Biological target: T1, human CRF receptor type 1 (human, UniProt P34998 24-415)
T1 construct: whole, on cells; also called hCRF-R1; CRF-R1
T1 sequence (looked up): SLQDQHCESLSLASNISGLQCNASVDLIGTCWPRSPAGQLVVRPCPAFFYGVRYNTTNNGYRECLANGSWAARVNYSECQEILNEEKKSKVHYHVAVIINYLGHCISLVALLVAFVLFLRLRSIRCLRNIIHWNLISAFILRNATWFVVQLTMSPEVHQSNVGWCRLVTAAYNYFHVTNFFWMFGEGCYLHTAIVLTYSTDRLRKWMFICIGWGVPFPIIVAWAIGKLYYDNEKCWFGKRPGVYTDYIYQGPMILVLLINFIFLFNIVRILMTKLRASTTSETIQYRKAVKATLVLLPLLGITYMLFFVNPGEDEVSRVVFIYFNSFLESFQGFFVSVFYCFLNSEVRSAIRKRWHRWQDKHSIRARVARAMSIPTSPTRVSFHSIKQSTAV
Experiment: radioligand displacement ([125I-Tyr0,Glu1,Nle17]-sauvagine), CHO membranes

B1: Urocortin (rat) (peptide, UniProt P55090 81-120, looked up)
peptide: DDPPLSIDLTFHLLRTLLELARTQSQRERAEQNRIIFDSV
notes: mature; also called Ucn; rUcn
Question: Which Ki does the source give for B1 here?
Answer: 0.32 nM
